For 1 substance, proliferation of BaF3/MPL-zcytor17 cells (Alamar Blue), fold over background (fold over background) results are on record in patent US20070105777A1.

By UniProt entry, the sequences of proteins in these tests, tags left out. Where a name states a change or a piece, a line headed by the entry shows the natural chain unless it says otherwise.
UniProt Q08351: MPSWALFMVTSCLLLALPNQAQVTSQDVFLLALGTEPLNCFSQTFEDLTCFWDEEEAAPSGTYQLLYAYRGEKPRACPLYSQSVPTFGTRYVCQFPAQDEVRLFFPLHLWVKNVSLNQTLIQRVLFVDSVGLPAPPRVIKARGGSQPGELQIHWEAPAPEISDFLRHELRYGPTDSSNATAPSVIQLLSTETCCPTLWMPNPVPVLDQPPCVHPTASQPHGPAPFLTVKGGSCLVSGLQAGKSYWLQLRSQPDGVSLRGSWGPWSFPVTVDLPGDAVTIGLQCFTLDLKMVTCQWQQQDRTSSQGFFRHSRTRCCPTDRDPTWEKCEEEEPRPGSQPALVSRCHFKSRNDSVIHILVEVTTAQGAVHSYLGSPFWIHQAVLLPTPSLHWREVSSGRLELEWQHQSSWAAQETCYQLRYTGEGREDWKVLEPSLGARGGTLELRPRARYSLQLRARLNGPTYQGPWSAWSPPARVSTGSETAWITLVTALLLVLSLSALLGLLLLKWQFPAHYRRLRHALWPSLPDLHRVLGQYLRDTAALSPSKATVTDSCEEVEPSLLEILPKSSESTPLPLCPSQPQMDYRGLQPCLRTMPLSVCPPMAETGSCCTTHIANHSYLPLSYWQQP

The test addresses MPL-zcytor17 polypeptide chimera: MPL extracellular and TM domain fused to the zcytor17 intracellular signaling domain (murine; human) (UniProt Q08351). The test can be described thus: cell-based or functional assay.

On to “murine thrombopoietin (from UniProt P40226 22-356) (ligand)”, for which the proliferation of BaF3/MPL-zcytor17 cells (Alamar Blue), fold over background (fold over background) is 9 to 13.
